{"sequences": {"note": "Sequences of proteins named here, by UniProt entry; tags and fusion partners are left off.", "UniProt Q9Y570, whole entry": "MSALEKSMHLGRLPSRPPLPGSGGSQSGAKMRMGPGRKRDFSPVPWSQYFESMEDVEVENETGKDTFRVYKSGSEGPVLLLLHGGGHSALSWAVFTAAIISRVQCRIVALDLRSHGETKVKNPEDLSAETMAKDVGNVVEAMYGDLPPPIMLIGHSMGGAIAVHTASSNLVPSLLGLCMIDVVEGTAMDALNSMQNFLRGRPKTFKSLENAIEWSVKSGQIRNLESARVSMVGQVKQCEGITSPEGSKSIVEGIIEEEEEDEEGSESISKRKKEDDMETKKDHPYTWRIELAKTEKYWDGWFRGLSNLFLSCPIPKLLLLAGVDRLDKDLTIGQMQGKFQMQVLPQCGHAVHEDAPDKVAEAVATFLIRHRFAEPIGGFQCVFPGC"}, "source": "PubChem BioAssay AID2130", "about": "(The Scripps Research Institute Molecular Screening Center, 2009)", "note": "This is a selection; strong and weak results do not stand in their true shares. Active and inactive are the calls of the source.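 The calls were made as follows: active = inhibition above the campaign mean of all compounds plus 3 SD (cut at about 26% in these data); inactive = the rest.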"}
{"molecular_target": "Protein phosphatase methylesterase 1 (Homo sapiens) (UniProt Q9Y570)", "assay": "PME-1 inhibitors via competitive probe labeling, primary screen, biochemical, fluorescence polarization, FP-Rh probe, HTS (AID 2130);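 also: competitive labeling of PME-1 active site by serine hydrolase directed probe; 0% = PME-1 with DMSO and 100% = wells lacking PME-1 enzyme; inhibitors block probe labeling so polarization falls and inhibition rises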", "conditions": "recombinant PME-1, FP-Rh probe fluorescence polarization; at 5.9 µM; stronger effect = higher value"}
{"smiles": "O=C(NC1CCS(=O)(=O)C1)NP(=S)(Oc1ccccc1)Oc1ccccc1", "note": "(stereo unspecified)", "inhibition": "inactive: 3.24%"}
